Data as given in patent US20140222443A1, “MOLECULAR PROFILING FOR CANCER” (priority 2011, published 2014).

Key:
[1] = test system: HER2 positive breast cancers; conditions: unselected HER2+ patients; cited from earlier work
[2] = test system: HER2 positive breast cancers; test: Response of HER2 positive breast cancer patients to trastuzumab; type: in vivo, human; conditions: after excluding patients unlikely to respond (PIK3CA mutation, lack of PTEN, p95 HER2 truncation)
From the text: An illustrative benefit of the molecular profiling approach is illustrated in FIG. 46. For every 100 HER2+ patients, only about 30 (30%) will be Responders to treatment with trastuzumab. Molecular profiling according to the Example identifies 50 (50%) out of the 70 patients (70%) not likely to respond, e.g., because of PIK3CA mutations (25%), lack of PTEN (15%) or a p95 HER2 truncation (10%). HER2 spans the cell membrane and trastuzumab binds the external portion of the protein. However, most HER2 tests, including the FDA approved tests available from Dako (Dako North America, Inc., Carpinteria, Calif.) and Ventana (Ventana Medical Systems, Inc., Tucson, Ariz.), target the internal domain of HER2. Profiling according to the invention uses two antibodies for HER2: one with affinity to the internal domain, another with affinity to both the internal and external domains. If the latter antibody is negative but the tests targeting the internal domain are positive (e.g., the FDA approved tests), then HER2 is “p95 truncated” and trastuzumab will not be effective. By identifying patients unlikely to respond, efficacy of trastuzumab for a selected population can be increased from 30% to 60%. Furthermore, the molecular profiling methods of the invention can identify candidate treatments that are more likely to be effective in the trastuzumab non-responders.

## trastuzumab
[1]
  percentage of HER2 positive breast cancers likely to respond (Responders): about 30%
[2]
  efficacy for a selected population: 60%
